Laboratory results reported in patent publication US20230190927A1, “ENPP1 INHIBITORS AND METHODS OF MODULATING IMMUNE RESPONSE” (Angarus Therapeutics, Inc., priority 2020, published 2023).

Test system: 4T1 tumor
Experiment: 4T1 tumor model: IR with compound 1, cGAMP and/or anti-CTLA-4, tumor volume and survival
Type: in vivo, mouse
Protocol: Tumor volumes were recorded every other day.

[1] = 20 Gy IR, compound 1 in addition to cGAMP intratumorally on day 2, 4 and 7

COc1cc2ncnc(N3CCC(CCP(=O)(O)O)CC3)c2cc1OC [Compound 1]
survival [1]: prolonged survival | tumor shrinkage [1]: synergistically shrunk tumors | tumor shrinkage effect over IR treatment (20 Gy IR, single agent intratumorally on day 2, 4 and 7 after IR (100 μL of 100 μM compound 1 or 10 μg cGAMP)): enhanced tumor shrinkage effects of IR treatment, although not significantly | anti-tumor effect (survival) (IR pretreatment, 1 mM compound 1 intratumorally with 200 μg anti-CTLA-4 intraperitoneally): exerted significant synergistic effects | survival (without IR, 1 mM compound 1 intratumorally with 200 μg anti-CTLA-4 intraperitoneally): had no effect on prolonging survival
